Patent US10087191B2, “Piperidine derivative and preparation method and pharmaceutical use thereof” (Jiangsu Hengrui Medicine Co., Ltd., priority 2015, dated 2018)
Like-named read-outs stand apart in the source and are kept apart here.

Protein sequences, listed by entry. Tags and fused reporters are not part of them.
UniProt P03372, whole entry: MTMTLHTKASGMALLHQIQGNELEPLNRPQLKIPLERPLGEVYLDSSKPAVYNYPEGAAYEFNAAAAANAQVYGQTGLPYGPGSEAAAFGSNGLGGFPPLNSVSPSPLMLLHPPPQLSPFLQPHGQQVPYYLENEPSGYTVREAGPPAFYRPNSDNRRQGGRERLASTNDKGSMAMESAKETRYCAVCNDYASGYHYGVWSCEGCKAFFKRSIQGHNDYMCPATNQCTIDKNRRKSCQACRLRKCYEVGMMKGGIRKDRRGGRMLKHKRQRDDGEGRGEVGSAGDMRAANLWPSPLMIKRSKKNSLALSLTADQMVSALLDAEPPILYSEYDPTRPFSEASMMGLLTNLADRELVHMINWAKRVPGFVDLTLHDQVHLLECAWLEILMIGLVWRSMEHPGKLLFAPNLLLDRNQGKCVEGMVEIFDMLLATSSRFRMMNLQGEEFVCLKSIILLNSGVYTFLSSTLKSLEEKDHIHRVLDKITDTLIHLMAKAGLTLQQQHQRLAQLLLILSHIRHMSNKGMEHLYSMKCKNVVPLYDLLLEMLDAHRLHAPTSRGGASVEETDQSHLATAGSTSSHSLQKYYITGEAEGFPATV

Tests used:
Assay type in all cases: cell-based
MCF7 cells = test: Inhibition of the proliferation of MCF7 cells (Cell Titer-Glo); conditions: Homo sapiens, MCF-7 cells, 72 hours, read-out: IC50 value of inhibition effect on the proliferation of MCF7 cells
Procedure: The object of this experiment was to determine the inhibition effect of the compounds on the proliferation activity of MCF7 cells, and the in vitro activity of the compounds was evaluated according to the IC50 value.
After incubation for 24 hours, the medium was removed, then 90 μl of the medium containing 2% FBS and 10 μl of the drug were added to each well, 10 μl of DMSO were added to the control group, and the blank group contained only 100 μl medium containing 2% FBS. The plate was gently shaken and incubated in a incubator at 37° C., 5% CO2. After 72 hours, 50 μl of mixed Cell Titer-Glo (Promega, Cat. No. G7571) were added to each well. The plate was shaken until the ingredients were well mixed, and placed at room temperature for 10 minutes, then the chemiluminescence signal value was determined.
The values of the chemiluminescence signals vs the logarithmic concentrations of the compounds were plotted using Graghpad Prism to obtain IC50 values.

ERα = ERα (Homo sapiens (Human), UniProt P03372); test: Degradation effect on ERα in MCF-7 cells (ERα Duoset ELISA); conditions: read-out: IC50 value of the degradation effect on ERα
Procedure: In order to determine the degradation effect on ER induced by the compounds of the present invention, the following method was used to determine the degradation effect of the compounds of the present invention on ER.
MCF-7 cell line (TChu 74, Cell Bank of Chinese Academy of Sciences typical culture preservation Committee)
ERα Duoset Kit (#DYC5715E, R&D System)
MCF-7 cells were incubated in DMEM/F-12 medium containing 10% FBS.
On the first day of the experiment, MCF-7 cells were resuspended in DMEM/F-12 medium containing 10% FBS treated by activated carbon, then inoculated into a 48-well plate with a density of 50,000 cells/well and incubated for 22-24 hours.
On the second day of the experiment, the test compound was diluted with medium and added to a 48-well plate. The ERα-capture antibody was diluted to 1 μg/ml with PBS, and added to a 96-well plate at 100 μl/well. The plate was sealed and coated overnight at room temperature.
On the third day of the experiment, the coated 96-well plate was washed twice with PBS, added with a sealing solution (1% BSA in PBS) at 110 μl/well and sealed for 1 hour at room temperature. The 48-well plate was washed once with PBS, and the residual liquid was removed. Then, 60 μl of lysis (6 M urea, 1 mM EDTA, 0.5% Triton X-100, 1 mM PMSF, Protease Inhibitor cocktail) was added to each well. After lysis on ice for 15 minutes, the diluent (1 mM EDTA, 0.5% TritonX-100 dissolved in PBS) was added. The cell-diluted lysate was transferred to a 96-well plate at 100 μl/well, then the plate was incubated at room temperature for 2 hours. The diluted primary antibody was added after the plate was washed 4 times with a washing liquid (PBST). After incubation for 1 hour, the 96-well plate was washed 4 times, and the second antibody was added, then the plate was incubated for 30 minutes. After the plate was washed with a washing liquid, TMB chromogenic solution was added and incubated for 15 minutes. The reaction was stopped by the addition of 1 M H2SO4, then the light absorption at 450 nm was read.

estrogen receptor (ER) = estrogen receptor (ER) (Homo sapiens (Human), UniProt P03372); test: Inhibition of the binding of estrogen (E) to estrogen receptor (ER), MCF-7/ERE-luciferase reporter cells; conditions: MCF-7/ERE-luciferase cells, 0.1 nM estradiol, 24 hours; read-out: IC50 value of inhibition effect on the binding of E to ER
Procedure: The inhibition effect of the compounds on the binding of E to ER in vitro was tested by the following method.
The object of this experiment was to determine the inhibition effect of the compounds on the binding of E to ER, and the in vitro activity of the compounds was evaluated according to the IC50 value.
MCF-7/ERE-luciferase cells were inoculated into the MEM medium (hyclone, SH30024.01B) containing 10% charcoal stripped FBS (Moregate, FBSF), 1% sodium pyruvate (Sigma, Cat. No. S8636), 1% nonessential amino acids (Sigma, Cat. No. M7145) and 500 μg/ml G418 in a 96-well plate with a density of 30,000 cells/well, and the cells were incubated under the conditions of 37° C. and 5% CO2. […] After incubation for 24 hours, the medium was removed, then 0.1 nM estradiol (Sigma, Cat. No. E2758) and 10 μl of the drug diluted with the medium were added to each well, and the control group was added with DMSO. The plate was gently shaken and incubated in a incubator at 37° C., 5% CO2. After 24 hours, the cell culture medium was discarded.
The inhibition effect of the compounds of the present invention on the binding of E to ER was tested by the experiment described above.

Row | DC50 (ERα; MCF-7 cells) | IC50 (estrogen receptor (ER)) | Structure (SMILES) | IC50 (MCF7 cells) | DC50 (ERα)
1 | – | – | C[C@@H]1Cc2cc(C#Cc3cnn(C)c3)ccc2[C@@H](c2c(F)cc(/C=C/C(=O)O)cc2F)N1CC(C)(C)F [Example 8, (E)-3-(3,5-difluoro-4-((1S,3R)-2-(2-fluoro-2-methylpropyl)-3-methyl-6-((1-methyl-1H-pyrazol-4-yl)ethynyl)-1,2,3,4-tetrahydroisoquinolin-1-yl)phenyl)acrylic acid] | 1.58 nM | –
2 | – | – | C[C@H]1Cc2cc(C#Cc3cnn(C)c3)ccc2[C@H](c2c(F)cc(/C=C/C(=O)O)cc2F)N1CC(C)(C)F [Example 9, (E)-3-(3,5-difluoro-4-((1R,3S)-2-(2-fluoro-2-methylpropyl)-3-methyl-6-((1-methyl-1H-pyrazol-4-yl)ethynyl)-1,2,3,4-tetrahydroisoquinolin-1-yl)phenyl)acrylic acid] | 1.59 nM | –
3 | 6.58 nM | – | Cc1ncc(-c2ccc3c(c2)CC(C)N(CC(C)(C)F)C3c2c(F)cc(/C=C/C(=O)O)cc2F)s1 [Example 10, (E)-3-(3,5-difluoro-4-((1S,3R/1R,3S)-2-(2-fluoro-2-methylpropyl)-3-methyl-6-(2-methylthiazol-5-yl)-1,2,3,4-tetrahydroisoquinolin-1-yl)phenyl)acrylic acid] | – | –
4 | 2.02 nM | 0.64 nM | Cc1ncc(-c2ccc3c(c2)C[C@@H](C)N(CC(C)(C)F)[C@@H]3c2c(F)cc(/C=C/C(=O)O)cc2F)s1 [Example 11, (E)-3-(3,5-difluoro-4-((1S,3R)-2-(2-fluoro-2-methylpropyl)-3-methyl-6-(2-methylthiazol-5-yl)-1,2,3,4-tetrahydroisoquinolin-1-yl)phenyl)acrylic acid] | – | –
5 | – | 56.5 nM | Cc1ncc(-c2ccc3c(c2)C[C@H](C)N(CC(C)(C)F)[C@H]3c2c(F)cc(/C=C/C(=O)O)cc2F)s1 [Example 12, (E)-3-(3,5-difluoro-4-((1R,3S)-2-(2-fluoro-2-methylpropyl)-3-methyl-6-(2-methylthiazol-5-yl)-1,2,3,4-tetrahydroisoquinolin-1-yl)phenyl)acrylic acid] | – | –
6 | 0.82 nM | – | CCn1cc(-c2ccc3c(c2)CC(C)N(CC(C)(C)F)C3c2c(F)cc(/C=C/C(=O)O)cc2F)cn1 [Example 20, (E)-3-(4-((1S,3R/1R,3S)-6-(1-ethyl-1H-pyrazol-4-yl)-2-(2-fluoro-2-methylpropyl)-3-methyl-1,2,3,4-tetrahydroisoquinolin-1-yl)-3,5-difluorophenyl)acrylic acid] | – | –
7 | 0.67 nM | 0.32 nM | CCn1cc(-c2ccc3c(c2)C[C@@H](C)N(CC(C)(C)F)[C@@H]3c2c(F)cc(/C=C/C(=O)O)cc2F)cn1 [Example 21, (E)-3-(4-((1S,3R)-6-(1-ethyl-1H-pyrazol-4-yl)-2-(2-fluoro-2-methylpropyl)-3-methyl-1,2,3,4-tetrahydroisoquinolin-1-yl)-3,5-difluorophenyl)acrylic acid] | – | –
8 | – | – | CC1Cc2cc(-c3cn[nH]c3)ccc2C(c2c(F)cc(/C=C/C(=O)O)cc2F)N1CC(C)(C)F [Example 24, (E)-3-(3,5-difluoro-4-((1S,3R/1R,3S)-2-(2-fluoro-2-methylpropyl)-3-methyl-6-(1H-pyrazol-4-yl)-1,2,3,4-tetrahydroisoquinolin-1-yl)phenyl)acrylic acid] | 0.46 nM | 0.12 nM

Row | Structure (SMILES) | DC50 (ERα; MCF-7 cells) | IC50 (estrogen receptor (ER)) | IC50 (MCF7 cells) | DC50 (ERα)
9 | C[C@@H]1Cc2cc(-c3cn[nH]c3)ccc2[C@@H](c2c(F)cc(/C=C/C(=O)O)cc2F)N1CC(C)(C)F [Example 25, (E)-3-(3,5-difluoro-4-((1S,3R)-2-(2-fluoro-2-methylpropyl)-3-methyl-6-(1H-pyrazol-4-yl)-1,2,3,4-tetrahydroisoquinolin-1-yl)phenyl)acrylic acid] | 0.21 nM | 0.51 nM | – | –
